Data published in patent US12325710B2, “Substituted 1,2,3,4,5,6-hexahydroazepino[4,5-b]indoles for treating brain disorders” (priority 2019, dated 2025).

Key:
larval zebrafish [1] = test: Heart rate and arrhythmia in immobilized larval zebrafish
[2] = Solubility in 0.9% saline; conditions: saline (0.9%) based vehicles with co-solvents/additives, water
[3] = tested on: larval zebrafish expressing GCaMP5; test: Seizurogenic potential in larval zebrafish expressing GCaMP5; format: in vivo; conditions: 200 μM; PTZ positive control
Protocol: Transgenic larval zebrafish expressing GCaMP5G were immobilized in agarose, treated with compounds, and imaged over time. The known seizure-inducing compound PTZ was used as a positive control. All compounds were treated at 200 μM (n=2 per condition).

larval zebrafish [4] = test: Larval zebrafish movement activity during a battery of light and acoustic stimuli; conditions: 1 h treatment, concentration-response
Excerpt: Stimuli applied over time are indicated under the heatmaps. Colors indicate bright LED light of respective colors, black traces represent the waveforms of acoustic stimuli, and gray vertical lines indicate physical tapping as secondary acoustic stimuli.
Response is […] proportional to classification accuracy; 0-20% indicates no ability and 100% indicates perfect classification. […] The solid line denotes the median and the shading denotes a 95th percentile confidence interval calculated by bootstrap. N=8 wells/condition (64 animals/condition).

zebrafish = test: Zebrafish developmental toxicity assay; conditions: 100 μM; 2 and 5 dpf

With ibogaine [reference compound] the “heart rate (bradycardia)” value (larval zebrafish [1]) was “visually noticeable decrease in heart rate”, the “solubility (in words)” value [2] was “lack of water solubility” and the “solubility (in words)” value ([2]; listed as ibogaine hydrochloride) was “limited solubility”. For the same substance, the “seizure induction (neural activity)” value [3] was “Neither ibogaine nor TBG produced excessive neural activity”, the “behavioral phenotype with increasing concentration versus vehicle and lethal control (eugenol, 100 μM)” value (larval zebrafish [4]) was “more phenotypically distinct from the vehicle control, while more closely resembling the lethal control” and the “malformations, mortality, non-viable fish” value (zebrafish) was “significantly increased malformations and mortality”.
